Shown are actives, neighbours in structure and some others; about 1.2% of the full set was active somewhere.
Statin myotox sup – suppression of simvastatin myotoxicity | C2C12 myotubes + simvastatin, ATP luminescence, 48 h; scaled: DMSO 0, geranylgeraniol control 100 | 0.78% of 330,000 active | rescue of ATP level, % at 7.49 µM;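 active means mean ATP rescue above about 67%, or every replicate alone reaching that limit, limit read from the data, passing the limit was not always enough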;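 further: myotubes were challenged with 10 µM simvastatin during compound exposure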
miR122 inh – miR-122 inhibition in Huh7 cells; Huh7 miR-122 Renilla luciferase sensor, 48 h; neutral wells = 0, positive control = 100; activation (reporter increase), % at 12.5 µM; 0.3% of 340,000 active;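 active means mean replicate activation score at least 90 and every replicate individually at or above 90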;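 further: higher luciferase means less miR-122 activity so hits act as miR-122 inhibitors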
Cneo AK release – causes C. neoformans cell lysis; adenylate kinase release luminescence, 4 h; normalised: neutral wells 0, clomiphene wells 100; lysis activity, % at 15 µM; 0.2% of 360,000 active;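 active means mean lysis activity across replicates of at least 80%, whatever share of replicates individually reach that level; inactive means mean lysis activity below 80%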
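Assay system: C. neoformans cells. Amount: yeast cell density of 5 × 10^6 cells/mL. Technique: AK luminescence. Buffer or medium: YPD. Times: static 4 h at 37 °C with compound, 1 h detection. Dosing: single-point compound dose. Read-out: lysis from increased AK signal.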
Yeast UUG start-1 – yeast start codon fidelity modulation. S. cerevisiae UUG-firefly luciferase reporter, luminescence/redox ratio. activity score, % at 18.7 µM. 0.13% of 350,000 active;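 active = replicate mean at a twofold rise or more, about +100% in these data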;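 also: firefly luciferase made from a UUG start codon reports start codon fidelity; reporter light over untreated wells divided by growth signal over untreated wells; some hits fall short of that in this replicate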
Yeast UUG start-2 – modulators of start codon recognition fidelity in yeast; activation, % at 38 µM; AID 652061; shares compounds with Yeast UUG start-1; S. cerevisiae UUG-start firefly luciferase, luminescence, 4 h; 100% means double the DMSO signal; 540 tested, under 10 active;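 active means signal increase whose fitted curve reaches an absolute level of 40 at a concentration under 10 µM; inactive means activity opposite to the expected increase, or the rest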
Starred values were filed as active, the others as inactive; i = inactive; . = not tested or not shown; ! = not confirmed by another sample; [ ] = dose if it differs, or a comment.

mol	Yeast UUG start-2	Yeast UUG start-1	Cneo AK release	Statin myotox sup	miR122 inh
COc1ccc(CN2C(=O)[C@@H]3[C@H]4C(=O)O[C@H](c5ccccc5)[C@@H](C)N(C)C(=O)CC/C=C/[C@H]4O[C@@]34C=CCN(Cc3ccccc3)C(=O)[C@@H]24)cc1	i	11.8*!	-15.8	.	.
C=CCN(Cc1ccccc1)C(=O)[C@H]1N(Cc2ccc(OC)cc2)C(=O)[C@@H]2[C@@H](C(=O)O)C3C=CC21O3 (some centres undefined)	.	-6.4	7.3	.	.
C[C@H](CO)N1C[C@H](C)[C@H](CN(C)C(=O)NC2CCCCC2)Oc2ccc(NC(=O)Cc3ccccc3)cc2C1=O	.	27.3	9.8	-16.5	6.7[16.7 µM]
COCCNC(=O)C[C@@H]1CC[C@H]2[C@H](COc3ccc(NC(=O)COC)cc3C(=O)N2C)O1	.	6.5	-3.4	1.6	-0.8[16.7 µM]
Cc1sc2nc(CN3CCOCC3)nc(N3CCC(C(N)=O)CC3)c2c1C	-7.5	285.9*	3.2	1.4	-0.7
O=C(C[C@@H]1C=C[C@@H](NC(=O)c2ccncc2)[C@H](CO)O1)NCC1CC1	.	.	-3.0	-2.3	4.4[16.7 µM]
O=C1Nc2ccc([N+](=O)[O-])cc2OC1CCN1CCN(c2ccccc2)CC1 (centres undefined)	-5.8	-24.6	2.2	-0.4	3.8
CN1CCN(CCC2Oc3cc([N+](=O)[O-])ccc3NC2=O)CC1 (centres undefined)	15.8	.	.	.	.
O=C1Nc2ccc([N+](=O)[O-])cc2OC1CCN1CCOCC1 (centres undefined)	5.9	-11.3	2.5	20.7	2.9
C[C@H]1CCCCO[C@H](CN(C)Cc2ccc(C(=O)O)cc2)[C@@H](C)CN([C@@H](C)CO)C(=O)c2cc(NS(=O)(=O)c3cccs3)ccc2O1	.	21.9	0.3	.	0.4[16.7 µM]

More compounds:
mol	Yeast UUG start-2	Yeast UUG start-1	Cneo AK release	Statin myotox sup	miR122 inh
C[C@@H]1CN([C@H](C)CO)C(=O)c2cc(NS(=O)(=O)c3ccc(F)cc3)ccc2O[C@H]1CN(C)Cc1ccc(C(=O)O)cc1	.	9.4	-0.3	.	0.0[16.7 µM]
O=S(=O)(N[C@@H]1CC[C@H](CCn2cc(-c3cccnc3)nn2)O[C@@H]1CO)c1ccc(Cl)cc1	i	102.0*	-1.2	11.5	.
O=C(Cc1ccccn1)NCC[C@@H]1CC[C@H](NS(=O)(=O)c2ccc(Cl)cc2)[C@H](CO)O1	i	103.5*	4.5	-4.7	.
O=C(Cc1ccccn1)N[C@H]1CC[C@@H](CCNS(=O)(=O)c2cccc(F)c2)O[C@@H]1CO	i	243.5*	52.3	0.4	27.1[16.7 µM]
COc1cccc(-c2cn(CC[C@@H]3CC[C@H](NC(=O)CC4CC4)[C@@H](CO)O3)nn2)c1	i	155.0*	0.6	7.5	.
COc1cccc(-c2cn(CC[C@H]3CC[C@H](NC(=O)CC4CC4)[C@H](CO)O3)nn2)c1	.	-2.0	-0.3	1.3	.
O=C(Cc1ccccn1)N[C@H]1CC[C@@H](CCNS(=O)(=O)c2cccc(F)c2)O[C@H]1CO	.	3.1	3.3	-1.3	6.3[16.7 µM]
O=C(Cc1ccccn1)NCC[C@H]1CC[C@@H](NS(=O)(=O)c2ccc(Cl)cc2)[C@@H](CO)O1	.	-8.0	12.8	-0.9	.
N#C[C@@H]1[C@@H](c2ccc(-c3cccc(F)c3)cc2)[C@H](CO)N1S(=O)(=O)c1cccc(F)c1	.	-8.9	1.6	15.3	.
O=C(Nc1ccc2c(c1)[C@H]1C[C@@H](CC(=O)N3CCCCC3)O[C@H](CO)[C@H]1O2)C1CCC1	.	15.6	-0.1	1.5	3.5[16.7 µM]

Profiles from above:
`O=S(=O)(N[C@@H]1CC[C@H](CCn2cc(-c3cccnc3)nn2)O[C@@H]1CO)c1ccc(Cl)cc1` reads Yeast UUG start-2 = i; Yeast UUG start-1 = 102.0*; Cneo AK release = -1.2; Statin myotox sup = 11.5; miR122 inh = .
`O=C(Cc1ccccn1)NCC[C@H]1CC[C@@H](NS(=O)(=O)c2ccc(Cl)cc2)[C@@H](CO)O1` reads Yeast UUG start-2 = .; Yeast UUG start-1 = -8.0; Cneo AK release = 12.8; Statin myotox sup = -0.9; miR122 inh = .

At a glance, part of the list above:
mol	Yeast UUG start-2	Yeast UUG start-1	Cneo AK release	Statin myotox sup	miR122 inh
Cc1sc2nc(CN3CCOCC3)nc(N3CCC(C(N)=O)CC3)c2c1C	-7.5	285.9*	3.2	1.4	-0.7
O=C(C[C@@H]1C=C[C@@H](NC(=O)c2ccncc2)[C@H](CO)O1)NCC1CC1	.	.	-3.0	-2.3	4.4[16.7 µM]

Later entries:
mol	Yeast UUG start-2	Yeast UUG start-1	Cneo AK release	Statin myotox sup	miR122 inh
COCc1cn(CC[C@H]2CC[C@@H](NC(=O)Nc3c(C)noc3C)[C@H](CO)O2)nn1	.	-4.0	-2.3	-8.1	-9.4[16.7 µM]
COCc1cn(CC[C@H]2CC[C@H](NC(=O)Nc3c(C)noc3C)[C@H](CO)O2)nn1	i	193.8*	41.0	9.3	6.6[16.7 µM]
CO[C@@H]1CN(C)C(=O)c2cc(NS(=O)(=O)CC(F)(F)F)ccc2OC[C@@H](C)N(CCC(F)(F)F)C[C@H]1C	.	10.3	3.0	-2.1	-1.5[16.7 µM]
Cc1cc(C(=O)CSc2nnc(-c3cccnc3)n2-c2ccccc2F)c(C)n1C	8.6	-4.9	-2.9	-1.5	-4.3
COCC(C)n1c(C)cc(C(=O)CSc2nc3ccccc3c(=O)[nH]2)c1C (centres undefined)	.	-6.0	-1.1	-18.2	-7.3
COCC(C)n1c(SCC(=O)c2cc(C)n(C)c2C)nc2ccccc2c1=O (centres undefined)	-1.2	1.2	1.3	-0.5	-2.3
Cc1cc(C(=O)CSc2nnc(-c3ccccc3)n2-c2ccccc2)c(C)n1-c1ncn[nH]1	11.2	653.4*	-2.0	11.9	-6.2
Cn1c(SCC(=O)c2ccccc2)nnc1-c1cccnc1	.	-18.1	-1.4	7.7	11.8
Cc1cc(C(=O)CSc2nnc(-c3ccccc3)n2C)c(C)n1C	-7.3	-8.3	2.5	3.5	-7.7
Cc1cc(C(=O)CSc2nnc(-c3cccnc3)n2-c2ccccc2)c(C)n1CC1CCCO1 (centres undefined)	.	-24.8	0.9	-2.7	1.6

Following part.
mol	Yeast UUG start-2	Yeast UUG start-1	Cneo AK release	Statin myotox sup	miR122 inh
COCC(=O)N1C[C@@H](C)[C@@H](OC)CN(C)C(=O)c2ccc(NC(=O)Nc3ccccc3)cc2OC[C@@H]1C	.	4.8	5.0	-4.3	.
COc1ccccc1CNC(=O)C[C@H]1CC[C@@H](NC(C)=O)[C@H](CO)O1	.	-3.8	6.8	-3.3	.
C=CCn1c(SCC(=O)c2cc(C)n(C)c2C)nnc1-c1ccncc1	.	-16.1	2.5	2.5	-7.1
CCCn1c(C)cc(C(=O)CSc2nc3ccccc3c(=O)n2Cc2ccco2)c1C	15.2	-20.6	-0.8	.	-3.1
Cc1cc(C(=O)CSc2nnc(-c3ccncc3)n2-c2ccccc2)c(C)n1C	6.9	.	.	.	.
NC(=O)CSc1nc2ccccc2c(=O)n1Cc1ccco1	.	-12.8	0.0	19.7	-11.0
CC(C)NC(=O)N(C)C[C@@H]1Oc2ccc(NC(=O)C3CC3)cc2CC(=O)N([C@@H](C)CO)C[C@@H]1C	.	-4.7	-1.4	31.4	3.1[16.7 µM]
CN(C)C1=NC[C@H](Cc2ccccc2)N1CCCC1CCCC1	1.2	150.7*	3.1	-32.1	0.4
Cc1ccc(-c2nn(-c3ccccc3)cc2/C=C2\SC(=S)N(CC(=O)O)C2=O)cc1	1.8	527.0*	0.8	1.2	20.7
COc1ccc(-c2nn(-c3ccccc3)cc2/C=C2/SC(=S)N(CCC(=O)O)C2=O)cc1	.	6.4	3.0	18.9	-2.2

Further records.
mol	Yeast UUG start-2	Yeast UUG start-1	Cneo AK release	Statin myotox sup	miR122 inh
CO[C@H]1CN(C)C(=O)c2cc(NC(=O)Nc3cc(F)ccc3F)ccc2OC[C@H](C)N(C(=O)c2cnccn2)C[C@H]1C	.	-5.9	2.1	-11.2	.
Cc1[nH]c2ccccc2c1/C=N/NC(=O)c1cc(-c2ccccc2)n[nH]1	0.7	168.8*	0.1	.	-5.4
Cc1[nH]c2ccccc2c1/C=N/NC(=O)c1ccc(N)cc1	.	-11.4	-0.7	-0.2	-4.9
CC(C)C#Cc1cnc2c(c1)C(=O)N([C@H](C)CO)C[C@@H](C)[C@H](CN(C)Cc1ccccc1F)O2	.	-4.0	9.3	15.0	44.6[16.7 µM]
COc1cc2c(C#N)c(N3CCc4ccccc4C3)nc(N)c2c(N)n1	-3.8	502.1*	0.0	-24.5	2.2
